Assay results taken from BindingDB's records for doi:10.1021/jm00092a019 (Bristol-Myers Squibb Pharmaceutical Research Institute, 1992).

Experiment: Inhibition of platelet aggregation using Adenosine diphosphate (ADP) as activating agent in rabbit platelet rich plasma (PRP)

EC50: 0.02 µM
SMILES: O=c1[nH]c2cc3cc(OCCO)ccc3nc2[nH]1
